In the assay the target is HLMs, UGT1A1, UGT1A6 and UGT1A9 (Homo sapiens, UniProt P19224). The settings on record: substrate diosmetin, compared with control. As to the method:
The protein concentrations of the HLMs and expressed UGTs were 0.0021–0.0106 mg protein/mL. All of the incubations were run at 37°C for 30 min, and the way of pretreated and determined samples were as discribed above.

By UniProt entry, the sequences of proteins in these tests, tags left out. Residues count along the entry.
UniProt P19224, 27-532: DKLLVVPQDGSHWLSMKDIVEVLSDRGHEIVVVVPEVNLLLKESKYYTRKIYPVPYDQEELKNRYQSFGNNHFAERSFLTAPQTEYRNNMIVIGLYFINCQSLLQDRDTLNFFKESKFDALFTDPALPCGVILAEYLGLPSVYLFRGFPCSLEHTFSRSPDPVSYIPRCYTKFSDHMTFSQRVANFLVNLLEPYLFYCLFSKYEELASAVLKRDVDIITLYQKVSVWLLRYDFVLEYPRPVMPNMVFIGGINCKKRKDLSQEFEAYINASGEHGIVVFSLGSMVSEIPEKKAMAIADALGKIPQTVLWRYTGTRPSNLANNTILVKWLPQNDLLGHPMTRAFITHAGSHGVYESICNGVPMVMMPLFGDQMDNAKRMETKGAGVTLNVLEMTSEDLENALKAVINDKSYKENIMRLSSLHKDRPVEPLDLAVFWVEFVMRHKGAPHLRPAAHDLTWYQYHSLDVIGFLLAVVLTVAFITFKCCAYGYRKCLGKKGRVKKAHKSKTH

In the case of `CCCCC1C(=O)N(c2ccccc2)N(c2ccccc2)C1=O` [phenylbutazone], the “effect on formation of Dio-7-G” value was “significantly decrease”.

The record behind these values is paper PMC5104480 (PLoS ONE, 2016).
